In PMC3570733 (Biochemistry, 2013) one finds Km, kcat and kcat/Km data, which are given here for eight molecules.

Series [1] deals with BcerKBAB4_1335. Particulars: 25 °C; expressed with 2,2'-bipyridyl, Mn (1.0) Zn (0.6) per monomer.
Substrate in series [2]: N[C@H](COP(=O)(O)O)Cc1c[nH]cn1
Put plainly: purified protein. Particulars: 25 °C.

The mark [3] stands for this setting: enzyme as isolated, Mn (1.0) Zn (0.4) Fe (0.3) per monomer.
Where [4] appears, read: enzyme as isolated, Mn (1.1) Zn (0.3) per monomer.
[5] abbreviates: enzyme as isolated, Zn (0.4) Fe (0.3) per monomer.
Where [6] appears, read: expressed without 2,2'-bipyridyl, Fe (2.6) Zn (0.4) per monomer.

`N[C@H](COP(=O)(O)O)Cc1c[nH]cn1` [L-histidinol phosphate]: the Km (usually the concentration of substrate that gives half-maximal velocity) in series [1] amounted to 1300 ± 200 µM.

B1: BBR47_00270 (Brevibacillus brevis NBRC 100599) (protein)
chain: MLIDYHLHLEEGPFSLRWLDRTNMALDHFYPLTEPRHTRAWLLDSLARLNNRMSLGAYDPSWIDLYLREALNKGLKEVGIVDHLYRFREARPYFERYMELGDTELGRLQRTWLNQVCTESLSDFCVAIEEAKQRWSASGVELRLGLEADYFIGGEAELESLLAGASWDYVIGSVHFLQGWGFDNPETRHLFEQHDLKQLYTDFFHTVESMIRSNLFDFVAHLDNLKVFSYRPEESELVPYYHRIATALKETDTATEINAGLYYRYPVQEMCPSPAFLDVLVAHGVPLTLSSDAHFPDDIGRYVAVNLEILDSMGVTEIATFFGRQRIMRPICYA
For the molecule B1, the Michaelis-Menten constant (Km) in series [2] (enzyme as isolated, Zn (1.6) Mn (0.3) per monomer) was 2600 ± 300 µM.

B2: BCE_1533 (Bacillus cereus ATCC 10987) (protein)
chain: MKVDYHIHLEEGPYSIGWLAKINESLQHYEPLKEEKHSMEWLVKIQERLQRRVNEGPFTTKWIDLYLEEALRKGIKEVGIVDHLYRFYEAKEYYEKYVDISDSGLGRLQKEWLDQVRVASLHDFTKAIEEAKERWSKRGVTLKLGIEADYFIGGEQQLQSLLALGDFDYVIGSVHFLNGWGFDNPDTKEYFKEHDLYALYDTFFKTVECAVRSELFDIIAHLDNIKVFNYRLDENEQISYYKKIARALVETNTATEINAGLYYRYPVREMCPSPLYLQVLAKHEVPITLSSDAHYPNDLGKYVEENIKTLRNHDIAHLATFTKRVRTMRLLEEVTISK
With B2, in series [2] (enzyme as isolated, Mn (1.4) Zn (0.4) per monomer), the Km stood at 1500 ± 100 µM.

B3: GK2799 (Geobacillus kaustophilus HTA426) (protein)
chain: MRDGHIHTPFCPHGSQDPLEAYVERAIELGYTDISFTEHAPLPERFIDPTPNQDCSMKLSQLERYLHAVAEVKARYRNDIAIRVGLEVDFIPGFEEETTRLLDEVGPLLDDSILSVHFLAHEGQYVCLDYSEDMFADIVRLFGSVERVHRAYYETVLQSIRTELGRYKPRRIGHMTLVRKFQRRFPCLEPMDEWIVAILDDIKQFGYELDYNGAGAAKPLCLEPYPPGGVIAEARRRGIPIVYGSDAHRAADLHQGRERMDREALSVDNRPQPS
As for B3, in series [2] (setting [3]), the Km stood at 8000 ± 3000 µM; the kcat (commonly the number of substrate molecules converted per active site and unit of time at saturation) stood at 7.6 s⁻¹; the catalytic efficiency (kcat/Km) – broadly, the turnover number divided by the Michaelis constant – is 900 M⁻¹ s⁻¹.

B4: BH3206 (Halalkalibacterium halodurans C-125) (protein)
chain: MGKHDGHVHTPFCPHGTKDSFDAYCERAISLGFTSLSFTEHAPLPKGFTDPTPAQDSSIGWNELDDYIHTLSSIKKAYRDQLTIYIGLEVDFIEGFEEEICTFLNEYGPLLDDSLLSVHFLKHSDRYFCIDYSPDVFAVAIRTFGSIQAVYDTYYRTLERSITSELGPYKPKRIGHMTLVNKFQKKFPAPSTEHQKKSQLEILQLVKKHGYSLDYNGAGFIKPLCGESYPPESIAKEAVALGIPLIYGSDAHQAKALATGWEQMTPTLKNQDE
Consider B4, for which, in series [2] (setting [4]), the Km turned out to be 640 ± 80 µM, the kcat amounted to 28 s⁻¹ and the kcat/Km turned out to be 44000 M⁻¹ s⁻¹.

B5: MCCL_0344 (Macrococcoides caseolyticum JCSC5402) (protein)
chain: MKVDFHIHLEEGPYTNNFFNKTITSIDTVKGIQATHTLDDIERKAQLFNERMEKGDYSEWWLDLYLEMSLQKGLKQVGIVDHLYRFQETRNYFLKYMDVSDTDLGCRQREWLNQVMTHKMDDFVTFINSQKEKWDKAGVELKLGIEADYFIGGEEELKSLLAPYEFDYIIGSVHFNHGWGFDNPELENKFNEYDLVKLYTDHFNTVIKAAESGIFSFIAHLDNLKVFNYRPEEALLIPLYEQVAEALAKNDVATEVNVGLKYRYPVKEQCPSERFIKVLSEYDVKFTTSSDSHFPHDIGIYNDEIRNLLKRNGVKSIVTFSKMKREEKDIKSIIH
Take B5: in series [2] (enzyme as isolated, Mn (0.9) Fe (0.6) Zn (0.3) per monomer), the Km was found to be 1500 ± 300 µM.

B6: SMU_1486c (Streptococcus mutans UA159) (protein)
chain: MRDNHLHTHFSYDSDASFEDYLTHYDGEIVTTEHYDLSNPYTQQDDVPDYEAYSKEIAELNAKYGNRIKRGIEIGYYQPREADILSFLADKDYDLKLLSVHHNGVNDYLDDEVADMDKETIIQEYLDKLEYAIGRVEADVLAHFDYGFRLFDLTVDELKTHEAQLRRIFHKMIDHNLAFELNSKSMYLYGHEHLYRYALSLVKNLGCHKYTIGSDGHKLEHFRLAFDKIQDILDEYGIEEGEII
As for B6, in series [2] (setting [5]), the Km was found to be 580 ± 70 µM, the catalytic constant (kcat) was determined as 0.31 s⁻¹ and the kcat/Km was 530 M⁻¹ s⁻¹.

B7: BSU29620 (Bacillus subtilis subsp. subtilis str. 168) (protein)
chain: MQKRDGHIHTPFCPHGSNDTLRQYAEEALKKGFESITFTEHAPLPPSFTDPTPLKDSAMAQASLERYIHEISGLKKEYRGQLSIRTGLEVDYIAEFEDEITLFLDTYGPYLDDSILSVHFLRTDSSYLCLDYDEHTFKELISACGSIEAVYEQYYRSIYSSIVASLGVYKPKRVGHITLVQKFIKLFPYSMSEHIRGLVSLCLNAIEENGMELDFNTSGLRKTYAGGIYIEDWMLNEAKQKKIPLVFGSDAHQAGDVGYAYEAFLERC
In the case of B7, in series [2] (setting [6]), the Km is 100 ± 10 µM, the kcat is 0.37 s⁻¹ and the kcat/Km is 3700 M⁻¹ s⁻¹.
